Reference: patent US20240307409A1, “ARGININE METHYLTRANSFERASE INHIBITOR AND USE THEREOF” (Cytosinlab Therapeutics Co., Ltd., priority 2021, published 2024)

Amino acid sequences for entries named in this document (tags omitted).
UniProt Q99873, whole entry: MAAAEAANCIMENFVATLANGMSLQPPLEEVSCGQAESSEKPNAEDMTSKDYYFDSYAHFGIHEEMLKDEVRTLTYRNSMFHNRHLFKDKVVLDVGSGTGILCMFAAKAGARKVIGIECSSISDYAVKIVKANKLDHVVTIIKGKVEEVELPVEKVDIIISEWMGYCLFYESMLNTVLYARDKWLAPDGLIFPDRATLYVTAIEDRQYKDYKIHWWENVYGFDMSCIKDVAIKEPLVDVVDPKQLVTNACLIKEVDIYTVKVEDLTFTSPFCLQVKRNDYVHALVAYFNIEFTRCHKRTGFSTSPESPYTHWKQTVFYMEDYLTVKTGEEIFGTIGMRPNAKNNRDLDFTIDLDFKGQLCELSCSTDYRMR

Key:
PRMT1 = PRMT1 (Homo sapiens, UniProt Q99873); assay: PRMT1 enzyme activity test; settings: read-out: PRMT1 IC50; 0.5 nM PRMT1, 3H-SAM, peptide
Experimental: PRMT1 enzyme activity test were performed in a buffer prepared on the same day 5 consisting of 10 mMTirs-HCl (pH=8.0), 0.01% Tween-20 and 1 mM DTT. The compounds were prepared to the highest inhibitor concentration ultimately required in the 100× reaction with 100% DMSO and then transferred to one well of a 384-well Echo plate (Echo-eligible 384-well polypropylene microplates 2.0, transparent, flat-bottomed) and sequentially diluted in the next well with a 3-fold dilution of 100% DMSO, and so on, with a total of 10 concentrations based on Precision. 100% DMSO was added to two empty wells to serve as control well without compound and control well without enzyme in the same 384-well Echo plate. 250 nL of compound was transferred from each well of the 384-well Echo plate to a 384-well assay plate (384-well polypropylene storage microplate) via the Echo 550 liquid processor. […] After 120 min of incubation, the assay was terminated by the addition of non-radiolabeled SAM (5 uL) to a final concentration of 125 uM, which diluted 3H-SAM to a level at which its incorporation into the peptide substrate was no longer detected. […] Plates were read on a microplate counter (MicroBeta2) to measure the amount of ^3H-labeled peptide bound to the surface of the detection plate, measured in counts per minute (cpm). […]

Toledo cells = assay: Toledo cell proliferation inhibition assay; settings: read-out: Toledo cell proliferation inhibition IC50; six-day assay, CellTiter-Glo
Experimental: • A. Purpose: to determine the effects of compounds on Toledo cells through a six-day cell proliferation assay. • B. Reagents and materials: • 1. Cell culture medium: RPMI 1640+10% FBS • 2. 384-well cell culture plate (Corning, item #3764) • 3. 0.4% Taipan Blue Staining Solution (Thermo Fisher, item #T10282) • 4. cell counting plate (Thermo Fisher, item #C10228) • 5. 50 ml reagent reservoir (Corning, item #4870) • 6. 50 ml conical sterile polypropylene centrifuge tube (Thermo Fisher, item #339653) • 7. Automatic cell counter (Thermo Fisher, item #AMQAX1000) • 8. CellTiter-Glo Luminescent Cell Viability Detection Reagent (Promega, item #G7572) • 9. SpectraMax i3x Multi-Mode Enzyme Labeling Instrument (Megaman Molecular Instruments, item #5024062) • C. Experimental method • 1. Resuspending the cells with a pipette. • 2. 0.4% Taipan blue staining solution and Toledo cells were mixed in equal proportion, and the cells were counted using an automatic cell counter. • 3. Toledo cells were diluted to a final concentration of 2000 cells per well and transferred to a 50 ml reagent reservoir. • 4. Diluted Toledo cells were added to a 384-well cell culture plate, 40 ul per well. • 5. The cells were shortly centrifuged and settled. • 6. The cells were incubated in a 37° C., 5% CO2 cell culture incubator. • 7. […] Signal of luminescence was detected with a SpectraMax i3x multi-mode enzyme labeling instrument.

IC50 (PRMT1) [nM] | Compound | IC50 (Toledo cells) [nM]
< 50 | CNCCN(C)Cc1ncccc1C1CCCC(COC)CC1 (stereo not shown) | 1000 to 5000
50 to 500 | CCOCC1(COCC)CC=C(c2cnccc2CN(C)CCNC)CC1 | > 5000
